# Measured values taken from US20040242673A1.
# Molecular target: human PDE6D (Homo sapiens, UniProt O43924)
row,Kd [nM],Compound
1,830,CCc1sc(C(C)(C)C)cc1NC(=O)c1ccccc1
2,567,CC(=O)c1sc(-c2ccc(F)cc2)cc1NC(=O)c1cccs1
3,1680,O=C(Nc1ccccc1)c1ccc(-c2ccc(F)cc2)s1
4,348,CC(=O)c1sc(-c2ccc(F)cc2)cc1NC(=O)CN1CCN(C(=O)c2ccc(C)cc2)CC1
5,469,CN(C(=O)c1ccc(-c2ccc(F)cc2)s1)c1ccccc1
